Screens: PubChem BioAssay, Broad Institute
An excerpt weighted towards active compounds, which were near 1.5% of everything screened.
miR-122 sensor – miR-122 Renilla sensor signal increase in Huh7, primary screen, miR-122 inhibitor project, cell-based, single point, plate reader | Huh7 miR-122 Renilla luciferase sensor, 48 h; neutral wells = 0, positive control = 100 | activation (reporter increase), % at 12.5 µM | hit rate 0.3% among 340,000 | AID 602342, 2012;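 active means mean replicate activation score at least 90 and every replicate individually at or above 90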;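 further: higher luciferase means less miR-122 activity so hits act as miR-122 inhibitors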
PGC1a acetyl inh – inhibitors of PGC1a acetylation signal, primary screen, cell-based, U2OS, AlphaScreen, inhibitor mode | AlphaScreen anti-acetyl-lysine; with virally co-expressed GCN5 acetyltransferase | inhibition, % at 15.6 µM | hit rate 0.17% among 350,000 | AID 651687, 2012;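 active means every replicate shows inhibition of at least 40%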
UUG fidelity – modulators of start codon recognition fidelity in yeast; AID 602363; hit rate 0.13% among 350,000; activity score, % at 18.7 µM; S. cerevisiae UUG-firefly luciferase reporter, luminescence/redox ratio;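 active = replicate mean at a twofold rise or more, about +100% in these data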;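 note: firefly luciferase made from a UUG start codon reports start codon fidelity; reporter light over untreated wells divided by growth signal over untreated wells; some hits fall short of that in this replicate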
FN deposition inh – inhibitors of fibronectin matrix deposition, primary screen, AH1F cells, Alexa488-fibronectin fluorescence, plate reader | inhibition, % at 12.6 µM | AH1F fibroblasts, overnight | AID 743247, 2014 | hit rate 0.086% among 350,000;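 active means mean inhibition across replicates of 30% or more, regardless of how many single replicates reach that level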
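material = AH1F fibroblast monolayer depositing Alexa488-labelled fibronectin into matrix | amount = 10000 AH1F cells/well | buffer or medium = DMEM plus 2% serum, read in PBS | incubation = 1 h cell adhesion before compound, then overnight fibronectin incubation | detection = fluorescence at 485 nm excitation, 525 nm emission | evaluation = percent inhibition as loss of matrix-bound fibronectin fluorescence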
Cneo AK release – Cryptococcus neoformans cell lysis inducers, primary screen, AK release luminescence, single concentration; C. neoformans lysis, adenylate kinase release luminescence, 4 h; normalised: neutral wells 0, clomiphene wells 100; lysis activity, % at 15 µM; hit rate 0.2% among 360,000; AID 651654, 2012;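 active means mean lysis activity across replicates of at least 80%, whatever share of replicates individually reach that level; inactive means mean lysis activity below 80%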
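Schedule: static 4 h at 37 °C with compound, 1 h detection; system: C. neoformans cells; benchmarks: Clomiphene as positive control; buffer or medium: fresh YPD medium; measure: luminescence rise reflecting yeast cell lysis; measured by: luminescent adenylate kinase detection reagent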
HIV Env fusion – inhibitors of HIV-1 Env-driven cell-cell fusion, primary screen, HeLa-JRFL effector, CEM21 target cells, luciferase; hit rate 1.1% among 360,000; inhibition, % at 12.3 µM;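 active means mean replicate inhibition score of at least 50 and every replicate individually at or above 50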
Large screens that a line does not name were inactive; [ ] = dose if it differs, or a comment.

CC1(Oc2ccc3ccccc3c2)CCN(Cc2cccn2-c2nccs2)C1 (stereo not given)	HIV Env fusion 70.2 (no result: miR-122 sensor, PGC1a acetyl inh)
CC(=O)c1ccc(OC2(C)CCN(Cc3cccn3-c3nccs3)C2)cc1 (stereo not given)	none (no result: miR-122 sensor, PGC1a acetyl inh)
COc1ccc(-n2cc(-c3ccc(C)cc3)[n+]3c2SCC3)cc1	HIV Env fusion 117.6 (no result: miR-122 sensor, PGC1a acetyl inh, UUG fidelity, FN deposition inh, Cneo AK release)
Clc1ccc(-n2nnnc2-c2cnc(-c3ccncc3)nc2-c2cccs2)cc1	none (no result: PGC1a acetyl inh, FN deposition inh)
COc1ccc(-n2nnnc2-c2cnc(N3CCCC3)nc2C(F)(F)F)cc1	HIV Env fusion 72.3
FC(F)(F)c1nc(-c2cccs2)ncc1-c1nnnn1-c1ccc(Cl)cc1	HIV Env fusion 69.9 (no result: miR-122 sensor, PGC1a acetyl inh, UUG fidelity, FN deposition inh, Cneo AK release)
CN1CCCN(C2C3CC4CC(C3)CC2C4)CC1 (stereo not given)	none
CCOC(=O)C(=O)c1cn(C2OCC(OC(C)=O)C(OC(C)=O)C2OC(C)=O)c2ccccc12 (stereo not given)	none (no result: miR-122 sensor, PGC1a acetyl inh, UUG fidelity, FN deposition inh, Cneo AK release)
Cc1ccccc1C(=O)O[C@H]1[C@H](Cc2ccccc2)NS(=O)(=O)[C@H]2CC3C=C[C@]12O3	none (no result: PGC1a acetyl inh)
CC(C)(C)n1[nH]c2c3c(ccc2c1=O)C(=O)c1ccccc1C3=O	none (no result: UUG fidelity, Cneo AK release)
O=C(NC1CCCN(Cc2ccc(Cl)cc2)C1)c1ccccc1C(F)(F)F (stereo not given)	PGC1a acetyl inh 47.2
O=C(NC1CCCN(Cc2ccc(Cl)cc2)C1)c1c(F)cccc1F (stereo not given)	none
Cc1noc(C)c1S(=O)(=O)N(CC(=O)Nc1ccc2c(c1)OCO2)c1ccc(C(C)C)cc1	none
Cc1n[nH]c(C)c1S(=O)(=O)N(CC(=O)Nc1ccc2c(c1)OCCO2)c1ccc(C(C)C)cc1	HIV Env fusion 58.8
CC(C)c1ccc(-n2nnnc2SCC(=O)NC2CC2)cc1	HIV Env fusion 64.2
CCOC(=O)NC(=O)CSc1nnnn1-c1ccc(C)cc1	PGC1a acetyl inh 93.5
Cc1cc(C)c(NC(=O)c2ccc3nccnc3c2)c(C)c1	none (no result: FN deposition inh, HIV Env fusion)
COc1cc(CCC(=O)N2CCN(c3ccc([N+](=O)[O-])cc3)CC2)cc(OC)c1OC	none
N#C[C@@H]1[C@@H](c2ccc(-c3ccccc3)cc2)[C@@H](CO)N1C(=O)Cc1ccncc1	PGC1a acetyl inh 63.3 (no result: miR-122 sensor)
COc1ccccc1-c1ccc([C@H]2[C@@H](C#N)N(C(=O)C3CC3)[C@@H]2CO)cc1	Cneo AK release 87.2 (no result: miR-122 sensor)
COc1ccccc1-c1ccc([C@H]2[C@H](C#N)N(C(=O)C3CC3)[C@H]2CO)cc1	Cneo AK release 81.0 (no result: miR-122 sensor)
CN(C)c1ccc2c(c1)[C@@H]1C[C@@H](CC(=O)NCc3ccc(Oc4ccccc4)cc3)O[C@@H](CO)[C@@H]1O2	miR-122 sensor 95.6[16.7 µM] (no result: UUG fidelity)
CS(=O)(=O)Nc1ccc2c(c1)[C@@H]1C[C@H](CC(=O)NCc3ccc(-c4ccccc4)cc3)O[C@H](CO)[C@@H]1O2	none (no result: HIV Env fusion)
CS(=O)(=O)Nc1ccc2c(c1)[C@H]1C[C@H](CC(=O)NCc3ccc(-c4ccccc4)cc3)O[C@H](CO)[C@H]1O2	HIV Env fusion 77.8[16.7 µM]
CN(C)c1ccc2c(c1)[C@H]1C[C@@H](CC(=O)NCc3ccc(Oc4ccccc4)cc3)O[C@@H](CO)[C@H]1O2	none (no result: UUG fidelity)
O=C(C[C@H]1C[C@@H]2c3cc(NS(=O)(=O)c4ccc(F)cc4)ccc3O[C@@H]2[C@H](CO)O1)NCCc1ccccc1	HIV Env fusion 75.1[16.7 µM] (no result: FN deposition inh)
O=C(C[C@@H]1C[C@@H]2c3cc(NS(=O)(=O)c4ccc(F)cc4)ccc3O[C@@H]2[C@@H](CO)O1)NCCc1ccccc1	none (no result: FN deposition inh)
O=C(C[C@@H]1C[C@H]2c3cc(NS(=O)(=O)c4ccc(F)cc4)ccc3O[C@H]2[C@H](CO)O1)NCc1ccc(Oc2ccccc2)cc1	miR-122 sensor 150.2[16.7 µM] (no result: UUG fidelity, FN deposition inh)
COc1cccc(S(=O)(=O)Nc2ccc3c(c2)OC[C@H](C)N(C(=O)Cc2cccnc2)C[C@H](C)[C@@H](OC)CN(C)C3=O)c1	none (no result: miR-122 sensor, UUG fidelity, Cneo AK release)
Cc1ccc(C)c(NC(=O)C(OC(=O)c2cc[n+]([O-])cc2)c2ccccc2)c1 (stereo not given)	none (no result: FN deposition inh)
O=C(C[C@@H]1C[C@H]2c3cc(NS(=O)(=O)c4ccc(F)cc4)ccc3O[C@H]2[C@@H](CO)O1)NCc1ccc(Cl)cc1	none
O=C(C[C@@H]1C[C@H]2c3cc(NS(=O)(=O)c4ccc(F)cc4)ccc3O[C@H]2[C@H](CO)O1)NCc1ccc(-c2ccccc2)cc1	miR-122 sensor 111.0[16.7 µM]
O=C(C[C@H]1C[C@@H]2c3cc(NS(=O)(=O)c4ccc(F)cc4)ccc3O[C@@H]2[C@H](CO)O1)NCc1ccc(Cl)cc1	HIV Env fusion 86.3[16.7 µM]
Cc1cc(C)c(NC(=O)CS(=O)CC(=O)NCC2CCCO2)c(C)c1 (stereo not given)	none
COC(=O)c1ccc(/C=N/OCC(=O)NC2CCCCCCC2)cc1	miR-122 sensor 162.8 (no result: FN deposition inh, HIV Env fusion)
COC(=O)c1ccc(/C=N/OCC(=O)NC2CCCC(C)C2C)cc1 (stereo not given)	none
CCOC(=O)Nc1nc(-c2ccccc2)c(C(=O)c2ccc(Cl)cc2)s1	miR-122 sensor 109.6 (no result: FN deposition inh, HIV Env fusion)
COc1ccccc1-c1noc(-c2ccccc2)n1	none (no result: UUG fidelity, FN deposition inh, Cneo AK release, HIV Env fusion)
CN(CC(=O)NCCc1ccc(S(N)(=O)=O)cc1)CC(=O)Nc1ccc(Cl)c(C(F)(F)F)c1	HIV Env fusion 93.5 (no result: miR-122 sensor, PGC1a acetyl inh)
CN(CC(=O)Nc1ccc(Cl)c(C(F)(F)F)c1)C(=O)C1(c2ccccc2)CC1	HIV Env fusion 55.6
O=S(=O)(c1ccccc1F)N1CC[C@@H]2[C@H](CO)Nc3ccc(-c4ccccc4)cc3[C@@H]21	none (no result: HIV Env fusion)
N=c1c2ccccc2nnn1-c1ccccc1[N+](=O)[O-]	miR-122 sensor 160.6 (no result: UUG fidelity, Cneo AK release)
